Results from patent publication US20230335758A1, “REDOX FLOW BATTERY” (University of Massachusetts, priority 2022, published 2023).
Where two headings read alike, the source gives them in different places.

How the values were obtained:
[1] = 17 mM in acetonitrile
[2] = vs SHE, literature; cited from earlier work

tetrabutylammonium vanadium(iv)bis-hydroxyiminodiacetate [[TBA]2[VBH]]
oxidation to V^5+BH ([1]; one equivalent CoHCF, one equivalent of KPF6): quantitative oxidation | oxidation to V^5+BH ([1]; stirred one hour with one equivalent CoHCF, no added K^+): less than 1% | reduction potential [2]: ~0.3
